Test results reported in ChEMBL document CHEMBL4414672, “Synthesis of certain benzothieno[3,2-d]pyrimidine derivatives as a selective SIRT2 inhibitors” (Eur J Med Chem, 2020).

Molecular target: T1, NAD-dependent protein deacetylase sirtuin-2 (Homo sapiens) (UniProt Q8IXJ6)
T1 sequence (whole entry): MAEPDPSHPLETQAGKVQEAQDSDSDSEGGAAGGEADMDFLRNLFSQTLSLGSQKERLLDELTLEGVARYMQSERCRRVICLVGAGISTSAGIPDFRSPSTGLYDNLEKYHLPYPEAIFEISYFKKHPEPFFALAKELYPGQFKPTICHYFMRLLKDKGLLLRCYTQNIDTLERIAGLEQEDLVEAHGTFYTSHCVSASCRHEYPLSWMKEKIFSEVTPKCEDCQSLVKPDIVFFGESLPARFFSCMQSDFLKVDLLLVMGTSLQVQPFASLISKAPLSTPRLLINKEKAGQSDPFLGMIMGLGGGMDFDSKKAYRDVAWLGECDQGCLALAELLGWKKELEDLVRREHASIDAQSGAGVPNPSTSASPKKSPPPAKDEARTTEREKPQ
Assay: Potency index, ratio of cambinol compound IC50 to test compound IC50 for inhibition of SIRT2 (unknown origin)

Structure (SMILES): O=[N+]([O-])c1cccc(C2c3sc4ccc(Cl)cc4c3N=C3NN=C(c4cccc(F)c4)N32)c1 (stereo not drawn)
- Ratio IC50: 3.4

Structure (SMILES): O=C1CSC2=Nc3c(sc4ccc(Cl)cc34)C(c3ccc4ccccc4c3)N12 (stereo not drawn)
- Ratio IC50: 6.6

Structure (SMILES): O=[N+]([O-])c1cccc(C2c3sc4ccc(Cl)cc4c3N=C3NN=CN32)c1 (stereo not drawn)
- Ratio IC50: 5.4
